Screening results from PubChem BioAssay.
Hits are enriched below; roughly 0.43% of the tested compounds scored in any of these assays.
HCMV NEC inh: inhibitors of HCMV UL50-UL53 nuclear egress complex interaction | HTRF UL50-UL53 interaction, normalized percent inhibition | inhibition, % (no concentration beside the values) | actives 0.15% (n = 190,000) | AID 1918969; in the data active = inhibition above about 27%, passing the limit was not always enough
GIV-Gai inh: GIV-Galpha-i interaction inhibition; AID 1224905; 210,000 tested, 0.42% active; Galpha-i3/FITC-GIV peptide fluorescence polarization, 90 min; stronger effect = lower value; scaled: aluminum fluoride 0%, vehicle 100%; percent of control (FP), % (concentration not given with the values);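 active = replicate mean at 85% of control or lower, very high polarization wells dropped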;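 also: wells of about 15 µL received 100 nL stock; the first replicate is given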
GIV-Gai FP conf: confirmation of inhibitors of GIV binding to rat Galpha-i3; fluorescence polarization, mP at 100 µM; actives 38% (n = 580); FITC-GIV peptide binding to Galphai3, fluorescence polarization; stronger effect = lower value; shares compounds with GIV-Gai inh;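 active = inhibition score of 15 or more, meaning 100 minus mean polarization as percent of control over three replicates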
GIV Gai AS conf: GIV-Galpha-i3 inhibition, AlphaScreen confirmation; shares compounds with GIV-Gai inh; AlphaScreen Galphai3-GIV binding, purified proteins, 90 min; stronger effect = lower value; AlphaScreen counts at 100 µM; actives 39% (n = 580); AID 1259351;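 active = inhibition score at or above a set limit, where the score is 100 minus the three-replicate mean percent of control signal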
* marks the source's active call; other numbers are inactive results; nt = no result given.

SMILES	HCMV NEC inh	GIV-Gai inh	GIV-Gai FP conf	GIV Gai AS conf
S=c1nc(C2COc3ccccc3O2)[nH][nH]1 (configuration not stated)	-2.2	nt	nt	nt
CCOc1ccc(NC(=O)N2CCCN(c3ccc(=O)n(-c4ccc(F)cc4)n3)CC2)cc1	-49.4	101.5	nt	nt
O=C(c1cnn(-c2ccccc2)c1-n1cccc1)N1CCC(C(=O)N2CCc3ccccc32)CC1	-12.3	102.7	nt	nt
CCN(Cc1ccccc1)C(=O)c1cc2c(=O)n3ccccc3nc2n1C	-49.5	102.2	nt	nt
CN(Cc1ccccc1)C(=O)c1cc2c(=O)n3ccccc3nc2n1C	-29.5	67.6*	69.9	35770
Cc1ccccc1-n1cc(-c2ccnc(NCc3nnc4n3CCCC4)n2)cn1	-1.1	nt	nt	nt
Cc1cc(C(F)(F)F)n2nc(-c3ccccc3)cc2n1	-23.1	115.0	nt	nt
Cc1cc(-c2ccccc2)n2nc(-c3ccc(Cl)cc3)cc2n1	nt	50.6*	85.2	33087
c1ccc2c(c1)CCN2c1c2c(nc3ncnn13)CCC2	-9.6	91.1	77.6	25963
Cc1cc(N2CCc3ccccc32)n2ncnc2n1	0.3	106.8	nt	nt
COc1ccc(CC2SC(=Nc3ccc(Cl)cc3)NC2=O)cc1 (configuration not stated)	-17.2	99.0	nt	nt
COc1cc2c(cc1OC)CN(CCC(=O)O)CC2	nt	91.7	66.6	39813
COc1cc2c(cc1OC)CN(CC(N)=O)CC2	-7.3	nt	nt	nt
COc1cc(C2Nc3ccccc3NC3=C2C(=O)CC(c2ccccc2Cl)C3)cc(OC)c1OC (configuration not stated)	nt	114.3	nt	nt
O=[N+]([O-])c1ccc(NCCCO)cc1Sc1nc2ccccc2[nH]1	nt	111.4	nt	nt
O=[N+]([O-])c1ccc(N2CCCCC2)cc1Sc1nc2ccccc2[nH]1	nt	87.9	61.8	54142
O=S(=O)(NCCn1c(-c2ccncc2)nc2cccnc21)c1cccc(Cl)c1	-24.8	105.9	nt	nt
Cc1ccc(NC(=O)c2sc3nc4c(c(-c5ccco5)c3c2N)CCC4)cc1	nt	76.1*	65.5	50669
Cc1ccc(NC(=O)c2sc3nc4c(c(-c5ccco5)c3c2N)CCCC4)cc1	nt	103.4	nt	nt
Cc1cc(C)cc(N2C(=O)N(Cc3cc(=O)n4ccccc4n3)c3ccccc3S2(=O)=O)c1	nt	106.7	nt	nt

In another format: entries from further up.
Cc1ccccc1-n1cc(-c2ccnc(NCc3nnc4n3CCCC4)n2)cn1
  HCMV NEC inh: -1.1	GIV-Gai inh: nt	GIV-Gai FP conf: nt	GIV Gai AS conf: nt

CCN(Cc1ccccc1)C(=O)c1cc2c(=O)n3ccccc3nc2n1C
  HCMV NEC inh: -49.5	GIV-Gai inh: 102.2	GIV-Gai FP conf: nt	GIV Gai AS conf: nt

Already shown: 2 of the compounds above.
SMILES	HCMV NEC inh	GIV-Gai inh	GIV-Gai FP conf	GIV Gai AS conf
S=c1nc(C2COc3ccccc3O2)[nH][nH]1 (configuration not stated)	-2.2	nt	nt	nt
CCOc1ccc(NC(=O)N2CCCN(c3ccc(=O)n(-c4ccc(F)cc4)n3)CC2)cc1	-49.4	101.5	nt	nt

Continuation:
SMILES	HCMV NEC inh	GIV-Gai inh	GIV-Gai FP conf	GIV Gai AS conf
O=C1N(Cc2cc(=O)n3ccccc3n2)c2ccccc2S(=O)(=O)N1c1ccc(Cl)cc1	nt	84.5*	50.7*	35949
COc1ccc(NC(=O)Cc2ccc3nc(NC(C)=O)sc3c2)cc1	-4.3	103.4	nt	nt
O=C(O)c1ccccc1SCc1cc(=O)n2ccsc2n1	-0.4	108.3	nt	nt
COC(=O)c1c(NC(=O)CC2Sc3ccccc3NC2=O)sc(C)c1C (configuration not stated)	7.9	nt	nt	nt
COC(=O)c1c(NC(=O)CC2Nc3cc(C)c(C)cc3NC2=O)sc(C)c1C (configuration not stated)	nt	93.5	22.4*	26621
CC1CCCN(C(=O)Cn2c(=O)c3ccccc3n3c(=S)sc(-c4ccccc4)c23)C1 (configuration not stated)	-38.5	117.5	nt	nt
C=CCN(CC=C)S(=O)(=O)c1ccc(C(=O)Nc2ccc3c4c(cccc24)C(=O)N3CC)cc1	nt	77.8*	64.4	46376
CCCN(CCC)S(=O)(=O)c1ccc(C(=O)Nc2ccc3c4c(cccc24)C(=O)N3CC)cc1	nt	129.9	nt	nt
NC(=O)c1ccccn1	-1.9	nt	nt	nt
O=C(c1ccccc1)c1ccccn1	-19.9	77.5*	71.8	34253
CC(=O)N1CCN(C(=O)c2sccc2-c2ccccc2)CC1	-0.6	nt	nt	nt
CCOC(=O)Cn1cc2c(c1-c1ccccc1Br)c(=O)n(C)c(=O)n2C	-11.4	108.4	nt	nt
COc1ccc(-c2noc(=O)n2Cc2ccccc2)cc1	-0.1	103.4	nt	nt
O=C1CCCC(O)=C1C1(O)C(=O)c2ccccc2C1=O	74.4*	62.1*	56*	55998
O=C1CCCC(O)=C1C1=NC2(CCCCCC2)Cc2ccccc21	nt	102.9	nt	nt
O=c1c2c3nc4ccccc4nc3n(-c3cccc(Br)c3)c2ncn1CC1CCCO1 (configuration not stated)	11.6	101.3	nt	nt
Cc1nc(-c2cc(S(=O)(=O)Nc3cccc(F)c3)c(C)s2)sc1C	nt	103.0	nt	nt
O=C1C(c2ccnc3ccccc23)=C(O)c2ccccc21	-40.3	64.2*	75.7	34509
O=C1C(=O)c2ccccc2C(O)=C1c1ccccc1F	-108.6	96.3	nt	nt
O=C(O)c1ccc(CN2C(=O)CSc3ccccc32)o1	-13.3	102.2	nt	nt
COc1ccc(C=NC23CC4CC(CC(C4)C2)C3)cc1	-3.7	nt	nt	nt
